# Values quoted from earlier work in patent publication US7229966B2, “Compositions and methods for enhanced mucosal delivery of Y2 receptor-binding peptides and methods for treating and preventing obesity” (Nastech Pharmaceutical Company Inc., priority 2002, dated 2007).
# Conditions: rats; intraduodenal; with 1% (w/v) saline dispersion of polycarbophil; cited from earlier work
substance,measurement,value
"9-desglycinamide, 8-arginine vasopressin [DGAVP]",increase in bioavailability compared to aqueous solution without polymer,3–5 fold
